{"source": "patent US20240052300A1", "about": "“DIFFUSION GRADIENT ASSAY FOR ANTI-CD3-CONTAINING MOLECULES” (priority 2020, published 2024)", "test_system": "CHO cells expressing a BiTE®-Fc fusion molecule", "settings": "0 ug/mL to 1 μg/mL, 24 hours incubation; FIG. 1D"}
{"substance": "Pyroglutamate-DGNEEMGGC-AF594 [CD3-AF594 conjugate]", "values": [{"measurement": "cell viability", "result": "no observed cell viability defects"}]}
